{"source": "patent US8383577B2", "about": "“Octreotide implant having a release agent” (Endo Pharmaceuticals Solutions, Inc., priority 2008, dated 2013)", "origin": "cited, not measured here", "conditions": "cited from earlier work", "data": [{"substance": "D-tocopheryl (Vitamin E) polyethylene glycol 1000 succinate [Vitamin E TPGS]", "values": [{"measurement": "CMC", "setting": "critical micelle concentration", "result": 0.1, "unit": "mM"}, {"measurement": "HLB", "setting": "hydrophilic-lipophilic balance", "result": 13}]}]}
